# Measured values published in US11186582B2, “Substituted [1,2,4]triazolo[1,5-a]pyrimidin-7-yl compounds as PDE2 inhibitors” (DART NEUROSCIENCE (CAYMAN) LTD., priority 2014, dated 2021).
# Chains of the proteins cited; added tags and fusions are not shown. Residues count along the entry.
# UniProt O00408, 2-941: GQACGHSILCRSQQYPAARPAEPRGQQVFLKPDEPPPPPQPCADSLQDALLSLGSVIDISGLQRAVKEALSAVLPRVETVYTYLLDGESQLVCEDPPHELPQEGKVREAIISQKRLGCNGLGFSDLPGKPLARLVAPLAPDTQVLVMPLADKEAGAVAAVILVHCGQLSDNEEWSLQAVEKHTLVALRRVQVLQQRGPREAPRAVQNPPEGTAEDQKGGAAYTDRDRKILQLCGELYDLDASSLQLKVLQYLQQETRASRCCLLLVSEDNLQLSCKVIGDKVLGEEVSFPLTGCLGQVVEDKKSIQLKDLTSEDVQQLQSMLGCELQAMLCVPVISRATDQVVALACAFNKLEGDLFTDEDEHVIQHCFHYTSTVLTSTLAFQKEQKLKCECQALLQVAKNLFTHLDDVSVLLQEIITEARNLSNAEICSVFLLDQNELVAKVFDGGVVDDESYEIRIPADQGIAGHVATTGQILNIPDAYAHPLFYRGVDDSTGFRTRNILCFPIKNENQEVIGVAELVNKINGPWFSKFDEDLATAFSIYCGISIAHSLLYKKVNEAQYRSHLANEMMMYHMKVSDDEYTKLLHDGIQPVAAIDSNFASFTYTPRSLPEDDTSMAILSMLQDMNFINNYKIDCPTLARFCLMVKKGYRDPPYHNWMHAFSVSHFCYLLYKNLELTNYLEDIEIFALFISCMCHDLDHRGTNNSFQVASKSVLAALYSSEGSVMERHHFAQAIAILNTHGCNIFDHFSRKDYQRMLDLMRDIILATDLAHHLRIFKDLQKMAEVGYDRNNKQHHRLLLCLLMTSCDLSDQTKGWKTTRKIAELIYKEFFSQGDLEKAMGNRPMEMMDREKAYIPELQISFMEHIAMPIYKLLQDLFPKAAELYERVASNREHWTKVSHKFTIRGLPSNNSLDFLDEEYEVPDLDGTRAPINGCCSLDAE
# Target: FLAG-tagged PDE2A1 (amino acids 2-941) (Homo sapiens (Human), UniProt O00408)
# Experiment: IMAP TR-FRET PDE2A phosphodiesterase enzymatic assay
# Conditions: not given
row,SMILES,IC50
1,"Cc1ccc(C(=O)N2CCCC(c3cc(C)nc4ncnn34)C2)c(C)c1 (stereo not drawn) [Example 454, 1-[(2,4-Dimethylphenyl)carbonyl]-3-{5-methyl-[1,2,4]triazolo[1,5-a]pyrimidin-7-yl}piperidine]",100 to 1000 nM
2,"COc1ccccc1C(=O)N1CCCC(c2cc(C)nc3ncnn23)C1 (stereo not drawn) [Example 455, 1-[(2-Methoxyphenyl)carbonyl]-3-{5-methyl-[1,2,4]triazolo[1,5-a]pyrimidin-7-yl}piperidine]",100 to 1000 nM
3,"COc1ccc(F)c(C(=O)N2CCCC(c3cc(C)nc4ncnn34)C2)c1 (stereo not drawn) [Example 456, 1-[(2-Fluoro-5-methoxyphenyl)carbonyl]-3-{5-methyl-[1,2,4]triazolo[1,5-a]pyrimidin-7-yl}piperidine]",100 to 1000 nM
4,"Cc1cc(C2CCCN(C(=O)c3ccc(C(C)C)cc3)C2)n2ncnc2n1 (stereo not drawn) [Example 458, 3-{5-Methyl-[1,2,4]triazolo[1,5-a]pyrimidin-7-yl}-1-{[4-(propan-2-yl)phenyl]carbonyl}piperidine]",100 to 1000 nM
5,"Cc1cc(C2CCCN(C(=O)c3nc4ccccc4s3)C2)n2ncnc2n1 (stereo not drawn) [Example 459, 2-[(3-{5-Methyl-[1,2,4]triazolo[1,5-a]pyrimidin-7-yl}piperidin-1-yl)carbonyl]-1,3-benzothiazole]",100 to 1000 nM
6,"COc1ccc(F)cc1C(=O)N1CCCC(c2cc(C)nc3ncnn23)C1 (stereo not drawn) [Example 460, 1-[(5-Fluoro-2-methoxyphenyl)carbonyl]-3-{5-methyl-[1,2,4]triazolo[1,5-a]pyrimidin-7-yl}piperidine]",1000 to 10000 nM
7,"Cc1cc(C2CCCN(C(=O)c3nn(C)c4ccccc34)C2)n2ncnc2n1 (stereo not drawn) [Example 462, 1-Methyl-3-[(3-{5-methyl-[1,2,4]triazolo[1,5-a]pyrimidin-7-yl}piperidin-1-yl)carbonyl]-1H-indazole]",100 to 1000 nM
8,"COc1cccc(C(=O)N2CCCC(c3cc(C)nc4ncnn34)C2)c1 (stereo not drawn) [Example 464, 1-[(3-Methoxyphenyl)carbonyl]-3-{5-methyl-[1,2,4]triazolo[1,5-a]pyrimidin-7-yl}piperidine]",100 to 1000 nM
9,"Cc1ccc(C)c(C(=O)N2CCCC(c3cc(C)nc4ncnn34)C2)c1 (stereo not drawn) [Example 466, 1-[(2,5-Dimethylphenyl)carbonyl]-3-{5-methyl-[1,2,4]triazolo[1,5-a]pyrimidin-7-yl}piperidine]",100 to 1000 nM
10,"COc1cc(F)ccc1C(=O)N1CCCC(c2cc(C)nc3ncnn23)C1 (stereo not drawn) [Example 467, 1-[(4-Fluoro-2-methoxyphenyl)carbonyl]-3-{5-methyl-[1,2,4]triazolo[1,5-a]pyrimidin-7-yl}piperidine]",100 to 1000 nM
11,"COc1c(F)cccc1C(=O)N1CCCC(c2cc(C)nc3ncnn23)C1 (stereo not drawn) [Example 468, 1-[(3-Fluoro-2-methoxyphenyl)carbonyl]-3-{5-methyl-[1,2,4]triazolo[1,5-a]pyrimidin-7-yl}piperidine]",1000 to 10000 nM
12,"Cc1cc(C2CCCN(C(=O)c3cccc(F)c3C)C2)n2ncnc2n1 (stereo not drawn) [Example 469, 1-[(3-Fluoro-2-methylphenyl)carbonyl]-3-{5-methyl-[1,2,4]triazolo[1,5-a]pyrimidin-7-yl}piperidine]",1000 to 10000 nM
13,"Cc1cc(C2CCCN(C(=O)c3csc4ccccc34)C2)n2ncnc2n1 (stereo not drawn) [Example 470, 1-[(1-Benzothiophen-3-yl)carbonyl]-3-{5-methyl-[1,2,4]triazolo[1,5-a]pyrimidin-7-yl}piperidine]",100 to 1000 nM
14,"Cc1cc(C2CCCN(C(=O)c3cc(F)cc(Cl)c3)C2)n2ncnc2n1 (stereo not drawn) [Example 471, 1-[(3-Chloro-5-fluorophenyl)carbonyl]-3-{5-methyl-[1,2,4]triazolo[1,5-a]pyrimidin-7-yl}piperidine]",100 to 1000 nM
15,"Cc1cc(C2CCCN(C(=O)c3c(F)cccc3F)C2)n2ncnc2n1 (stereo not drawn) [Example 472, 1-[(2,6-Difluorophenyl)carbonyl]-3-{5-methyl-[1,2,4]triazolo[1,5-a]pyrimidin-7-yl}piperidine]",> 10000 nM
16,"Cc1cc(C2CCCN(C(=O)c3sc(C)nc3C)C2)n2ncnc2n1 (stereo not drawn) [Example 473, 1-[(Dimethyl-1,3-thiazol-5-yl)carbonyl]-3-{5-methyl-[1,2,4]triazolo[1,5-a]pyrimidin-7-yl}piperidine]",1000 to 10000 nM
17,"Cc1cc(C2CCCN(C(=O)c3cc(Cl)ccc3F)C2)n2ncnc2n1 (stereo not drawn) [Example 474, 1-[(5-Chloro-2-fluorophenyl)carbonyl]-3-{5-methyl-[1,2,4]triazolo[1,5-a]pyrimidin-7-yl}piperidine]",100 to 1000 nM

row,SMILES,IC50
1,"Cc1cc(C2CCCN(C(=O)c3ccccc3C#N)C2)n2ncnc2n1 (stereo not drawn) [Example 476, 2-[(3-{5-Methyl-[1,2,4]triazolo[1,5-a]pyrimidin-7-yl}piperidin-1-yl)carbonyl]benzonitrile]",1000 to 10000 nM
2,"Cc1cc(C2CCCN(C(=O)c3c4ccccc4nn3C)C2)n2ncnc2n1 (stereo not drawn) [Example 477, 2-Methyl-3-[(3-{5-methyl-[1,2,4]triazolo[1,5-a]pyrimidin-7-yl}piperidin-1-yl)carbonyl]-2H-indazole]",> 10000 nM
3,"Cc1ccc(C(=O)N2CCCC(c3cc(C)nc4ncnn34)C2)cn1 (stereo not drawn) [Example 478, 2-Methyl-5-[(3-{5-methyl-[1,2,4]triazolo[1,5-a]pyrimidin-7-yl}piperidin-1-yl)carbonyl]pyridine]",1000 to 10000 nM
4,"Cc1cc(C2CCCN(C(=O)c3ccccc3)C2)n2ncnc2n1 (stereo not drawn) [Example 479, 1-Benzoyl-3-{5-methyl-[1,2,4]triazolo[1,5-a]pyrimidin-7-yl}piperidine]",100 to 1000 nM
5,"Cc1cc(C2CCCN(C(=O)c3ccc(Cl)c(F)c3)C2)n2ncnc2n1 (stereo not drawn) [Example 480, 1-[(4-Chloro-3-fluorophenyl)carbonyl]-3-{5-methyl-[1,2,4]triazolo[1,5-a]pyrimidin-7-yl}piperidine]",100 to 1000 nM
6,"Cc1cc(C2CCCN(C(=O)c3cc(F)ccc3Cl)C2)n2ncnc2n1 (stereo not drawn) [Example 482, 1-[(2-Chloro-5-fluorophenyl)carbonyl]-3-{5-methyl-[1,2,4]triazolo[1,5-a]pyrimidin-7-yl}piperidine]",1000 to 10000 nM
7,"Cc1cc(C2CCCN(C(=O)c3cccc(Cl)c3F)C2)n2ncnc2n1 (stereo not drawn) [Example 483, 1-[(3-Chloro-2-fluorophenyl)carbonyl]-3-{5-methyl-[1,2,4]triazolo[1,5-a]pyrimidin-7-yl}piperidine]",1000 to 10000 nM
8,"Cc1cc(C2CCCN(C(=O)c3ccc(F)cc3C)C2)n2ncnc2n1 (stereo not drawn) [Example 484, 1-[(4-Fluoro-2-methylphenyl)carbonyl]-3-{5-methyl-[1,2,4]triazolo[1,5-a]pyrimidin-7-yl}piperidine]",1000 to 10000 nM
9,"Cc1cc(C2CCCN(C(=O)c3ccc(F)cc3F)C2)n2ncnc2n1 (stereo not drawn) [Example 485, 1-[(2,4-Difluorophenyl)carbonyl]-3-{5-methyl-[1,2,4]triazolo[1,5-a]pyrimidin-7-yl}piperidine]",1000 to 10000 nM
10,"Cc1cc(C2CCCN(C(=O)c3ccc(F)c(F)c3)C2)n2ncnc2n1 (stereo not drawn) [Example 486, 1-[(3,4-Difluorophenyl)carbonyl]-3-{5-methyl-[1,2,4]triazolo[1,5-a]pyrimidin-7-yl}piperidine]",1000 to 10000 nM
11,"Cc1cc(C2CCCN(C(=O)c3cccc(C)c3C)C2)n2ncnc2n1 (stereo not drawn) [Example 487, 1-[(2,3-Dimethylphenyl)carbonyl]-3-{5-methyl-[1,2,4]triazolo[1,5-a]pyrimidin-7-yl}piperidine]",1000 to 10000 nM
12,"Cc1cc(C2CCCN(C(=O)c3cccc(C)c3Cl)C2)n2ncnc2n1 (stereo not drawn) [Example 488, 1-[(2-Chloro-3-methylphenyl)carbonyl]-3-{5-methyl-[1,2,4]triazolo[1,5-a]pyrimidin-7-yl}piperidine]",1000 to 10000 nM
13,"Cc1cc(C2CCCN(C(=O)c3ccc(C(F)F)cc3)C2)n2ncnc2n1 (stereo not drawn) [Example 489, 1-{[4-(Difluoromethyl)phenyl]carbonyl}-3-{5-methyl-[1,2,4]triazolo[1,5-a]pyrimidin-7-yl}piperidine]",100 to 1000 nM
14,"Cc1cc(C2CCCN(C(=O)c3ccc(C#N)cc3)C2)n2ncnc2n1 (stereo not drawn) [Example 490, 4-[(3-{5-Methyl-[1,2,4]triazolo[1,5-a]pyrimidin-7-yl}piperidin-1-yl)carbonyl]benzonitrile]",1000 to 10000 nM
15,"COc1ccc(C(=O)N2CCCC(c3cc(C)nc4ncnn34)C2)c(C)c1 (stereo not drawn) [Example 491, 1-[(4-Methoxy-2-methylphenyl)carbonyl]-3-{5-methyl-[1,2,4]triazolo[1,5-a]pyrimidin-7-yl}piperidine]",100 to 1000 nM
16,"Cc1ccc(F)c(C(=O)N2CCCC(c3cc(C)nc4ncnn34)C2)c1 (stereo not drawn) [Example 492, 1-[(2-Fluoro-5-methylphenyl)carbonyl]-3-{5-methyl-[1,2,4]triazolo[1,5-a]pyrimidin-7-yl}piperidine]",100 to 1000 nM
17,"Cc1cc(C2CCCN(C(=O)c3c(C)cccc3C)C2)n2ncnc2n1 (stereo not drawn) [Example 494, 1-[(2,6-Dimethylphenyl)carbonyl]-3-{5-methyl-[1,2,4]triazolo[1,5-a]pyrimidin-7-yl}piperidine]",1000 to 10000 nM

# Same assay, conditions: IMAP TR-FRET, 200 nM FAM-cAMP substrate, 11-point half-log dose-response
row,SMILES,PDE2 (pIC50)
1,"Cc1cc(C2CCCN(C(=O)c3cc4ccccc4s3)C2)n2ncnc2n1 (stereo not drawn) [Example 457, 1-[(1-Benzothiophen-2-yl)carbonyl]-3-{5-methyl-[1,2,4]triazolo[1,5-a]pyrimidin-7-yl}piperidine]",>7
2,"Cc1cc(C2CCCN(C(=O)c3cccc(-c4ccccc4)c3)C2)n2ncnc2n1 (stereo not drawn) [Example 461, 3-{5-Methyl-[1,2,4]triazolo[1,5-a]pyrimidin-7-yl}-1-[(3-phenylphenyl)carbonyl]piperidine]",>7
3,"Cc1cc(C2CCCN(C(=O)c3cc4ccccc4o3)C2)n2ncnc2n1 (stereo not drawn) [Example 463, 1-[(1-Benzofuran-2-yl)carbonyl]-3-{5-methyl-[1,2,4]triazolo[1,5-a]pyrimidin-7-yl}piperidine]",>7
4,"Cc1cc(C2CCCN(C(=O)c3cc4ccccc4n3C)C2)n2ncnc2n1 (stereo not drawn) [Example 465, 1-Methyl-2-[(3-{5-methyl-[1,2,4]triazolo[1,5-a]pyrimidin-7-yl}piperidin-1-yl)carbonyl]-1H-indole]",>7
5,"Cc1cc(C2CCCN(C(=O)c3ccc(-c4ccccc4)cc3)C2)n2ncnc2n1 (stereo not drawn) [Example 493, 3-{5-Methyl-[1,2,4]triazolo[1,5-a]pyrimidin-7-yl}-1-[(4-phenylphenyl)carbonyl]piperidine]",>7
